Like-named read-outs stand apart in the source and are kept apart here.

Sequences of proteins named here, by UniProt entry; tags and fusion partners are left off. Residues count along the entry.
UniProt P00800, 233-548, species assumed: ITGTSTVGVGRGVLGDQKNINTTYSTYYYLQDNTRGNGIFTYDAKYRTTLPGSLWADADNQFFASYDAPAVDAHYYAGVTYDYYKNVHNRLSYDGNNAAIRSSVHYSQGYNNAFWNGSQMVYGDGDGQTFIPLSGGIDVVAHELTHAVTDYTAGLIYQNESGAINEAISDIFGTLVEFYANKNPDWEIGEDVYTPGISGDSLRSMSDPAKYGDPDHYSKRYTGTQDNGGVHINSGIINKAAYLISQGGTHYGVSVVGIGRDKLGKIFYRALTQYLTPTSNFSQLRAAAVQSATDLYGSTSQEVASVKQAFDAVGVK

For three substances, cleavage efficiency results are on record in patent publication US6638509B1, “Toxin conjugates” (Kyowa Hakko Kogyo, Co., Ltd., priority 1995, dated 2003).

Series [1] has as its target thermolysin (Bacillus thermoproteolyticus, UniProt P00800). The note with it: 37° C.
Series [2] deals with proline endopeptidase. The settings on record: 37° C., 24 hours.

Substance “BzlO-PEG-Ala-Val-Compound (12) [Compound (X-1)]” gave a cleavage efficiency in series [1] (5 hours) of 78%. In series [1] (24 hours), HO-PEG-Ala-Val-ADM [Compound (XI-1)] had a cleavage efficiency of 100%. In series [2], HO-PEG-Gly-Pro-ADM [Compound (XI-3)] came in with a cleavage efficiency of 50%.
